Test system: rP34O (recombinant protocatechuate 3,4-dioxygenase, BuP34O)
Assay: substrate consumption by absorbance at […] nm, Michaelis-Menten fit
Details: 50 mM PBS pH 7.2, 35 °C; 10-400 μM substrate

SMILES: O=C(O)c1ccc(O)c(O)c1
- Km: 101 µM

From publication PMC8540567, “Degradation of 2,4,6-Trinitrotoluene (TNT): Involvement of Protocatechuate 3,4-Dioxygenase (P34O) in Buttiauxella sp. S19-1” (2021)
